Data: PubChem BioAssay AID1823 (The Scripps Research Institute Molecular Screening Center, 2009)
This is a selection; strong and weak results do not stand in their true shares. The source made the active and inactive calls. Rule as the data show it: active = inhibition above about 75%; inactive = the rest.

Assay: counter-screen for Nox1 inhibitors: inhibitors of luminol chemiluminescence (AID 1823)
Settings: HRP/luminol/H2O2 chemiluminescence counterscreen; at 6.7 µM; active compounds read high

Row | Structure (SMILES) | inhibition
1 | O=[N+]([O-])C1([N+](=O)[O-])COCOC1 | inactive: -2.25%
